According to patent US20240016734A1, “ENHANCED DELIVERY EPINEPHRINE AND PRODRUG COMPOSITIONS” (Aquestive Therapeutics, Inc., priority 2022, published 2024):
Like-named read-outs stand apart in the source and are kept apart here.

Conditions: 360 min
Protocol: A franz diffusion cell is obtained and prepared.
If testing films, one can perform the following next steps: (1) weigh films, punch to match diffusion area (or smaller), reweigh, record pre- and post-punching weight; (2) wet a donor area with approximately 100 μL of phosphate buffer; (3) place film on a donor surface, top with 400 μL of phosphate buffer, and start timers.
The tissue is dermatomed to precise thickness. • 4. […] The media is selected to ensure sink conditions. • 5.

CNC[C@H](O)c1ccc(O)c(O)c1 [Epinephrine Bitartrate]
Ratio of enhancement (8 mg/mL): 2.8
Ratio of enhancement (16 mg/mL): 7.9
Ratio of enhancement (100 mg/mL): 17.6
